Measurements from US5270302A, “Derivatives of tetrapeptides as CCK agonists” (priority 1991, dated 1993).

The chains behind the UniProt entries cited, without tags or fusion partners.
UniProt Q63931, whole entry: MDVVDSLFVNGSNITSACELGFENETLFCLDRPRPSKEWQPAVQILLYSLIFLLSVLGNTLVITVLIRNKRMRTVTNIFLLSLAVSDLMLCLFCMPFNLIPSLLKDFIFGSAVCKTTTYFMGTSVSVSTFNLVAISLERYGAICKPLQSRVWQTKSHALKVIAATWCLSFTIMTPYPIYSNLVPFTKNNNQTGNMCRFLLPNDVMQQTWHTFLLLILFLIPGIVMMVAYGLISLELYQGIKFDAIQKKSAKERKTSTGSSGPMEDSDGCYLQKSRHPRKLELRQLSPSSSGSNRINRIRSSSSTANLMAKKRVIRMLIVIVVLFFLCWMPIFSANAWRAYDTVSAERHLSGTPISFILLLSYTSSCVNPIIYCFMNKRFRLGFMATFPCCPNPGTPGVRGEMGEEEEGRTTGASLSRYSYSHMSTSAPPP

Legend:
Type-B CCK receptor = biological target: T1, Type-B CCK receptor (Cavia porcellus, UniProt H0VZC5); assay: Radioligand binding of [125I]BH-CCK-8 in guinea pig cerebral cortical membrane preparations; conditions: IC50 (nM) 125I-BH-CCK-8 Type-B receptor, guinea pig cortical membranes, 30° C., 150 minutes
T1 construct: Cortical and pancreatic membranes were prepared as described; from tissue; host or cells: guinea pig cerebral cortex membranes
T1 sequence (H0VZC5 1-426): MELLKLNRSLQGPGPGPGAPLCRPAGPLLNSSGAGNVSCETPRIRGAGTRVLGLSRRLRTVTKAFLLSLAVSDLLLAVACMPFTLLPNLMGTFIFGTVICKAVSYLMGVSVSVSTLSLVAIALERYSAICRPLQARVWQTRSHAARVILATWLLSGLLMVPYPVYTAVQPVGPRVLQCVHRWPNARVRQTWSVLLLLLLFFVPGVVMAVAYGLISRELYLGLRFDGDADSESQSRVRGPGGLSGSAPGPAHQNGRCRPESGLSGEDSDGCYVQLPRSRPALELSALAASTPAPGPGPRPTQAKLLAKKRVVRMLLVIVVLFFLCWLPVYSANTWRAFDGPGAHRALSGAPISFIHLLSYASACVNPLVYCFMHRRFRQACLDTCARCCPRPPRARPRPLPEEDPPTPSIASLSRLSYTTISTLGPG
Source text: (§1) CCK-8 [Asp-Tyr(SO3 H)-Met-Gly-Trp-Met-Asp-PheNH2 ], bestatin and phosphoramidion were purchased from Peptide International (Louisville, Ky.). EGTA (ethylene glycol-bis-(β-aminoethyl) N,N,N',N'-tetraacetic acid), HEPES (4-(2-hydroxyethyl)-1-piperazine-enthanesulfonic acid) and BSA (bovine serum albumin) were purchased from Sigma Chemical Co. (St. Louis, Mo.). [^125 I]-Bolton-Hunteer (BH-CCK-8) (specific activity, 2200 Ci/mmol) was obtained from New England Nuclear (Boston, Mass.). Male guinea pigs, 250 to 325 g, were obtained from Scientific Small Animal Laboratory and Farm (Arlington Heights, Ill.). Collagenase, code CLSPA was purchased from Worthington (Frehold, N.J.).
(§2) Protocol For Radioligand Binding Experiments in Guinea Pig Cerebral Cortical and Pancreatic Membrane Preparations
Cortical and pancreatic membranes were prepared as described (Lin and Miller; J. Pharmacol. Exp. Ther. 1985, 232:775-780,). In brief, cortex and pancreas were removed and rinsed with ice-cold saline. Visible fat and connective tissues were removed from the pancreas. […] The homogenates were entrifuged for 10 minutes at 1075×g and pellets were discarded. The supernatants were saved and centrifuged at 38,730×g for 20 minutes. The resultant pellets were rehomogenized in 25 mL of 50 mM Tris-HCl buffer with a Teflon-glass homogenizer, 5 up and down strokes. The homogenates were centrifuged again at 38,730×g for 20 minutes. Pellets werre then resuspended in 20 mM HEPES, containing 1 mM EGTA, 118 mM NaCl, 4.7 mM KCl, 5 mM MgCl2, 100 μM bestatin, 3 μM phosphoramidon, pH 7.4 at 22° C. with a Teflon-glass homogenizer, 15 up and down strokes. Resuspension volume for the cortex was 15-18 mL per gram of original wet weight and 60 mL per gram for the pancreas.
[^125 I]Bolton-Hunter CCK-8 and test compounds were diluted with HEPES-EGTA-salt buffer (see above) containing 0.5% BSA. To 1 mL Skatron polystyrene tubes were added 25 μL of test compounds, 25 μL of [^125 I]BH-CCK-8 and 200 μL of membrane suspension. The final BSA concentration was 0.1%. […] IC50 s were determined from the Hill analysis.

Type-A CCK receptor = biological target: T2, Type-A CCK receptor (Cavia porcellus, UniProt Q63931); assay: Radioligand binding of [125I]BH-CCK-8 in guinea pig pancreatic membrane preparations; conditions: IC50 (nM) 125I-BH-CCK-8 Type-A receptor, guinea pig pancreatic membranes, 37° C., 150 min
T2 construct: Cortical and pancreatic membranes were prepared as described; from tissue; host or cells: guinea pig pancreas membranes
Source text: as §1, §2
Cortical and pancreatic membranes were prepared as described (Lin and Miller; J. Pharmacol. Exp. Ther. 1985, 232:775-780,). In brief, cortex and pancreas were removed and rinsed with ice-cold saline. Visible fat and connective tissues were removed from the pancreas. […] The homogenates were entrifuged for 10 minutes at 1075×g and pellets were discarded. The supernatants were saved and centrifuged at 38,730×g for 20 minutes. […]
[^125 I]Bolton-Hunter CCK-8 and test compounds were diluted with HEPES-EGTA-salt buffer (see above) containing 0.5% BSA. […] IC50 s were determined from the Hill analysis.

Row | SMILES | IC50 (Type-B CCK receptor) [nM] | IC50 (Type-A CCK receptor) [nM]
1 | Cc1ccccc1NC(=O)NCCCC[C@H](NC(=O)[C@H](Cc1c[nH]c2ccccc12)NC(=O)OC(C)(C)C)C(=O)N[C@@H](CC(=O)O)C(=O)N(C)[C@@H](Cc1ccccc1)C(N)=O [Example 33, t-BOC-Trp-Lys(ε-N-(2-methylphenyl)aminocarbonyl)-Asp-(NMe)PheNH2] | 4300 | –
2 | Cc1ccccc1NC(=O)NCCCC[C@H](NC(=O)C(Cc1c[nH]c2ccccc12)OC(=O)OCC(C)C)C(=O)N[C@@H](CC(=O)O)C(=O)N[C@@H](Cc1ccccc1)C(N)=O (some centres unmarked) [Example 50, (Isobutoxycarbonyl)indolelactoyl-Lys(ε-N-(2-methylphenyl)aminocarbonyl)-Asp-PheNH2] | 5200 | 15
3 | Cc1ccccc1NC(=O)NCCCC[C@H](NC(=O)C(O)Cc1c[nH]c2ccccc12)C(=O)N[C@@H](CC(=O)O)C(=O)N[C@@H](Cc1ccccc1)C(N)=O (some centres unmarked) [Example 51, Indolelactoyl-Lys(ε-N-(2-methylphenyl)aminocarbonyl)-Asp-PheNH2] | 2100 | 28
